Experimental data taken from article PMC9575183.

Target: GFP-RILP LIR3-mutant (triple LIR mutant) (human) (UniProt Q96NA2)
Experiment: co-IP

percent reduction of LC3 binding relative to wt RILP: 50%
Substance: LC3 (co-immunoprecipitated with GFP-RILP) (from UniProt Q62625 1-120) (natural protein)
